Measured values reported in patent US7427591B2, “Suppression of immune response via inhibition of cathepsin S” (Massachusetts Institute of Technology, priority 1996, dated 2008).

System: Ii processing in HOM2 cells
Experiment: 35S pulse/chase of HOM2 cells, Tu36 immunoprecipitation, SDS-PAGE: Ii processing and SDS-stable class II peptide complexes
Type: cell-based, human
Details: 5 hour chase
Text: Lysates were precleared with protein A-agarose.
Samples were eluted with SDS-PAGE sample buffer.

SMILES	formation of SDS-stable complexes (peptide loading) (1 nM and S nM LHVS)	SDS-stable complexes (5 μM or 50 μM CGP 53437)	accumulation of Ii fragments (5 μM or 50 μM CGP 53437)
CC(C)C[C@H](NC(=O)N1CCOCC1)C(=O)N[C@H](/C=C/S(=O)(=O)c1ccccc1)CCc1ccccc1 [LHVS, morpholinurea-leucine-homophenylalanine-vinylsulfone phenyl]	marked decrease in formation of SDS-stable complexes	–	–
CC(C)[C@H](NC(=O)[C@H](Cc1ccccc1)C[C@H](O)[C@H](Cc1ccccc1)NC(=O)OC(C)(C)C)C(=O)N[C@@H](Cc1ccccc1)C(=O)N1CCOCC1 [CGP 53437]	–	nor did it produce a decrease in SDS-stable complexes	did not result in accumulation of Ii fragments
